Assay results as given in patent US8962608B2, “Cycloalkylnitrile pyrazole carboxamides as janus kinase inhibitors” (Merck Sharp & Dohme Corp., priority 2011, dated 2015).

By UniProt entry, the sequences of proteins in these tests, tags left out. Residues count along the entry.
UniProt O60674, 849-1124: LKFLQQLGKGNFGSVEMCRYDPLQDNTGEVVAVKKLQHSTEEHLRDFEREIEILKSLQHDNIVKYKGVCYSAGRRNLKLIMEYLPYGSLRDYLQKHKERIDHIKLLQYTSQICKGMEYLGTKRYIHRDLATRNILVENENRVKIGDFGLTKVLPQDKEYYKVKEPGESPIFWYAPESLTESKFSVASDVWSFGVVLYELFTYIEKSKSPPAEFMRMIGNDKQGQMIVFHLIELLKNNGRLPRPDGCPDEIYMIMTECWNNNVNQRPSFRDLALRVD
UniProt P23458, 875-1153: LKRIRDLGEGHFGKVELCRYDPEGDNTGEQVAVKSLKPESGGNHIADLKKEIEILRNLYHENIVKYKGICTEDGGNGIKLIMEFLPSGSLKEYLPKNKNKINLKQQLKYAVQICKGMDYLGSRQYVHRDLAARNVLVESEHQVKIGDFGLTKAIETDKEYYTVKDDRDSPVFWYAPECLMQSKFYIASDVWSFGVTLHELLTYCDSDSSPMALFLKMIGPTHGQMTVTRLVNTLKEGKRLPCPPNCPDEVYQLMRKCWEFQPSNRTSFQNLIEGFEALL

Key:
[1] = target: JAK2 (recombinant purified GST-tagged catalytic domain) (Homo sapiens (Human), UniProt O60674); experiment: biochemical;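 also: biochemical JAK kinase assay with HTRF detection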
[2] = target: JAK1 (recombinant purified GST-tagged catalytic domain) (Homo sapiens (Human), UniProt P23458); experiment: biochemical;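 also: biochemical assay with HTRF read-out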

Structure (SMILES) | IC50 [1] [nM] | IC50 [2] [nM]
N#C[C@@H]1C(n2cc(C(N)=O)c(Nc3ccccc3)n2)CCC[C@@H]1O (mixture of isomers) [Example 2-11, 1-[(1S,2S,3S and 1R,2R,3R)-2-cyano-3-hydroxycyclohexyl]-3-(phenylamino)-1H-pyrazole-4-carboxamide] | 49 | 5
CC(C)(c1ccc(Nc2nn([C@@H]3CCCC[C@H]3C#N)cc2C(N)=O)cc1)[C@@H](O)C(F)(F)F (single isomer, unassigned) [Example 17-30, 1-[(1R,2R or 1S,2S)-2-cyanocyclohexyl]-3-({4-[(2R or 2S)-3,3,3-trifluoro-2-hydroxy-1,1-dimethylpropyl]phenyl}amino)-1H-pyrazole-4-carboxamide] | 1 | 0.1
N#C[C@H]1CCCCC1n1cc(C(N)=O)c(Nc2ccc3c(c2)C(O)CS3(=O)=O)n1 (mixture of isomers) [Example 17-62, 1-[(1S,2S and 1R,2R)-2-cyanocyclohexyl]-3-[(3-hydroxy-1,1-dioxido-2,3-dihydro-1-benzothiophen-5-yl)amino]-1H-pyrazole-4-carboxamide] | 2 | 0.28
N#C[C@@H]1CCCC[C@H]1n1cc(C(N)=O)c(Nc2ccc(Cl)nc2)n1 (single isomer, unassigned) [Example 17-44, 3-[(6-chloropyridin-3-yl)amino]-1-[(1R,2R or 1S,2S)-2-cyanocyclohexyl]-1H-pyrazole-4-carboxamide] | 18 | 3
C[C@@](O)(c1ccc(Nc2nn([C@H]3CC[C@@H](O)C[C@@H]3C#N)cc2C(N)=O)cc1)C(F)(F)F (single isomer, unassigned) [Example 25-17, 1-[(1S,2S,4R or 1R,2R,4S)-2-cyano-4-hydroxycyclohexyl]-3-({4-[(1R)-2,2,2-trifluoro-1-hydroxy-1-methylethyl]phenyl}amino)-1H-pyrazole-4-carboxamide] | 2 | 0.35
N#C[C@H]1C(n2cc(C(N)=O)c(Nc3ccccc3)n2)CCC[C@H]1O (mixture of isomers) [Example 2-8, 1-[(1S,2R,3R and 1R,2S,3S)-2-cyano-3-hydroxycyclohexyl]-3-(phenylamino)-1H-pyrazole-4-carboxamide] | 635 | 174
N#C[C@@H]1C(n2cc(C(N)=O)c(Nc3ccccc3)n2)CCC[C@H]1O (mixture of isomers) [Example 2-9, 1-[(1S,2S,3R and 1R,2R,3S)-2-cyano-3-hydroxycyclohexyl]-3-(phenylamino)-1H-pyrazole-4-carboxamide] | 202 | 16
N#C[C@H]1C(n2cc(C(N)=O)c(Nc3ccccc3)n2)CCC[C@@H]1O (mixture of isomers) [Example 2-10, 1-[(1S,2R,3S and 1R,2S,3R)-2-cyano-3-hydroxycyclohexyl]-3-(phenylamino)-1H-pyrazole-4-carboxamide] | 100 | 13

More lines, now with the values ahead:

IC50 [1] [nM] | IC50 [2] [nM] | Structure (SMILES)
12 | 0.15 | CC1(C)CN([C@@H]2CC[C@H](n3cc(C(N)=O)c(Nc4ccc([C@@](C)(O)C(F)(F)F)cc4)n3)[C@@H](C#N)C2)C1 (single isomer, unassigned) [Example 28-62, 1-[(1S,2S,4R or 1R,2R,4S)-2-cyano-4-(3,3-dimethylazetidin-1-yl)cyclohexyl]-3-({4-[(1R or 1S)-2,2,2-trifluoro-1-hydroxy-1-methylethyl]phenyl}amino)-1H-pyrazole-4-carboxamide]
9 | 0.2 | N#C[C@H]1C[C@@H](N2CC3(CCC3)C2)CC[C@@H]1n1cc(C(N)=O)c(Nc2ccc([C@@H](O)C(F)(F)F)cc2)n1 (single isomer, unassigned) [Example 28-60, 1-[(1S,2S,4S or 1R,2R,4R)-4-(2-azaspiro[3.3]hept-2-yl)-2-cyanocyclohexyl]-3-({4-[(1R or 1S)-2,2,2-trifluoro-1-hydroxyethyl]phenyl}amino)-1H-pyrazole-4-carboxamide]
75 | 11 | N#C[C@H]1C[C@@H](O)CC[C@@H]1n1cc(C(N)=O)c(Nc2ccc(OC(F)F)cc2)n1 (single isomer, unassigned) [Example 33-7, 1-[(1S,2S,4S or 1R,2R,4R)-2-cyano-4-hydroxycyclohexyl]-3-{[4-(difluoromethoxy)phenyl]amino}-1H-pyrazole-4-carboxamide]
430 | 7 | CC1(C)CCN1[C@@H]1CC[C@H](n2cc(C(N)=O)c(Nc3ccc(C(F)(F)F)cc3)n2)[C@@H](C#N)C1 (single isomer, unassigned) [Example 28-197, 1-[(1S,2S,4R or 1R,2R,4S)-2-cyano-4-(2,2-dimethylazetidin-1-yl)cyclohexyl]-3-{[4-(trifluoromethyl)phenyl]amino}-1H-pyrazole-4-carboxamide]
2 | 0.04 | C[C@@](O)(c1ccc(Nc2nn([C@H]3CC[C@@H](N4CCC4)C[C@@H]3C#N)cc2C(N)=O)cc1)C(F)(F)F (single isomer, unassigned) [Example 28-76, 1-[(1S,2S,4R or 1R,2R,4S)-4-azetidin-1-yl-2-cyanocyclohexyl]-3-({4-[(1R or 1S)-2,2,2-trifluoro-1-hydroxy-1-methylethyl]phenyl}amino)-1H-pyrazole-4-carboxamide]
34 | 1 | CC1(C)CCN1[C@H]1CC[C@H](n2cc(C(N)=O)c(Nc3ccc(C(F)(F)F)cc3)n2)[C@@H](C#N)C1 (single isomer, unassigned) [Example 28-196, 1-[(1S,2S,4S or 1R,2R,4R)-2-cyano-4-(2,2-dimethylazetidin-1-yl)cyclohexyl]-3-{[4-(trifluoromethyl)phenyl]amino}-1H-pyrazole-4-carboxamide]
10 | 0.3 | N#C[C@H]1C[C@@H](NCC(F)(F)F)CCC1n1cc(C(N)=O)c(Nc2ccc(S(=O)(=O)C(F)F)cc2)n1 (mixture of isomers) [Example 27-12, 1-{(1S,2S,4S and 1R,2R,4R)-2-cyano-4-[(2,2,2-trifluoroethyl)amino]cyclohexyl}-3-({4-[(difluoromethyl)sulfonyl]phenyl}amino)-1H-pyrazole-4-carboxamide]
4 | 1 | CC1(c2ccc(Nc3nn([C@H]4CC[C@H](O)C[C@@H]4C#N)cc3C(N)=O)cc2)COC1 (single isomer, unassigned) [Example 33-19, 1-[(1S,2S,4S or 1R,2R,4R)-2-cyano-4-hydroxycyclohexyl]-3-{[4-(3-methyloxetan-3-yl)phenyl]amino}-1H-pyrazole-4-carboxamide]
41 | 4 | N#C[C@H]1C[C@@H](NCC(F)F)CC[C@@H]1n1cc(C(N)=O)c(Nc2ccc(F)c(Cl)c2)n1 (single isomer, unassigned) [Example 28-63, 3-[(3-chloro-4-fluorophenyl)amino]-1-{(1S,2S,4S or 1R,2R,4R)-2-cyano-4-[(2,2-difluoroethyl)amino]cyclohexyl}-1H-pyrazole-4-carboxamide]
36 | 0.6 | CC(C)(O)C1CN([C@@H]2CCC(n3cc(C(N)=O)c(Nc4ccc(Cl)cc4)n3)[C@@H](C#N)C2)C1 (single isomer, unassigned) [Example 28-212, 3-[(4-chlorophenyl)amino]-1-{(1S,2S,4R or 1R,2R,4S)-2-cyano-4-[3-(1-hydroxy-1-methylethyl)azetidin-1-yl]cyclohexyl}-1H-pyrazole-4-carboxamide]
0.95 | 0.2 | C[C@@](O)(c1ccc(Nc2nn([C@H]3CC[C@H](O)C[C@@H]3C#N)cc2C(N)=O)cc1)C(F)(F)F (single isomer, unassigned) [Example 33-13, 1-[(1S,2S,4S or 1R,2R,4R)-2-cyano-4-hydroxycyclohexyl]-3-({4-[(1R or 1S)-2,2,2-trifluoro-1-hydroxy-1-methylethyl]phenyl}amino)-1H-pyrazole-4-carboxamide]
1 | 0.06 | CC1(C)CN([C@H]2CC[C@H](n3cc(C(N)=O)c(Nc4ccc([C@@](C)(O)C(F)(F)F)cc4)n3)[C@@H](C#N)C2)C1 (single isomer, unassigned) [Example 28-68, 1-[(1S,2S,4S or 1R,2R,4R)-2-cyano-4-(3,3-dimethylazetidin-1-yl)cyclohexyl]-3-({4-[(1R or 1S)-2,2,2-trifluoro-1-hydroxy-1-methylethyl]phenyl}amino)-1H-pyrazole-4-carboxamide]
180 | 8 | N#C[C@H]1C[C@H](N2CCC2)CC[C@@H]1n1cc(C(N)=O)c(Nc2ccc(C(F)(F)F)nc2)n1 (single isomer, unassigned) [Example 28-33, 1-[(1S,2S,4R or 1R,2R,4S)-4-azetidin-1-yl-2-cyanocyclohexyl]-3-{[6-(trifluoromethyl)pyridin-3-yl]amino}-1H-pyrazole-4-carboxamide]
150 | 16 | N#C[C@H]1CCCCC1n1cc(C(N)=O)c(Nc2ccc(F)cc2)n1 (single isomer, unassigned) [Example 43-3, 1-[(1S,2R or 1R,2S)-2-cyanocyclohexyl]-3-[(4-fluorophenyl)amino]-1H-pyrazole-4-carboxamide]
8 | 0.15 | C[C@](O)(c1ccc(Nc2nn([C@H]3CC[C@@H](N4CCC4)C[C@@H]3C#N)cc2C(N)=O)cc1)C(F)(F)F (single isomer, unassigned) [Example 28-57, 1-[(1S,2S,4R or 1R,2R,4S)-4-azetidin-1-yl-2-cyanocyclohexyl]-3-({4-[(1S or 1R)-2,2,2-trifluoro-1-hydroxy-1-methylethyl]phenyl}amino)-1H-pyrazole-4-carboxamide]
7 | 0.2 | C[C@](O)(c1ccc(Nc2nn([C@H]3CC[C@H](N4CCC4)C[C@@H]3C#N)cc2C(N)=O)cc1)C(F)(F)F (single isomer, unassigned) [Example 28-78, 1-[(1S,2S,4S or 1R,2R,4R)-4-azetidin-1-yl-2-cyanocyclohexyl]-3-({4-[(1S or 1R)-2,2,2-trifluoro-1-hydroxy-1-methylethyl]phenyl}amino)-1H-pyrazole-4-carboxamide]
